Values of other authors in paper PMC3169519 (PLoS Computational Biology, 2011).

Conditions: cancer patients; cited from earlier work

CCc1c2c(nc3ccc(OC(=O)N4CCC(N5CCCCC5)CC4)cc13)-c1cc3c(c(=O)n1C2)COC(=O)[C@]3(O)CC [CPT11, irinotecan]
time CPT11 remained in the blood: approximately 24 h
